Reference: US5703097A, “5-pyrrolyl-2-pyridylmethylsulfinyl benzimidazole derivatives” (priority 1994, dated 1997)
Read-outs that look alike come from different tables or passages of the source.

Test system: ICR (male, female) mouse
Settings: in vivo, po
Protocol: Five weeks aged ICR (male, female) mouse were pre-bred in the breeding cage for one week and then the animals showing a smooth gain in body weight were randomly selected and used in this test. The amount to be administered to the test animals was established on the basis of the maximum dose of 4,000 mg/kg with the common ratio of 1.5.
The test compounds in a powder form were suspended in 0.5% methylcellulose and administered per oral using a syringe. The other specific conditions for administration are described in the following.
In the above test, the control group received only 0.5% methylcellulose.

| Compound | Lethality (1178 mg/kg) | Lethality (1185 mg/kg) | Lethality (1778 mg/kg) | Lethality (2667 mg/kg) | LD50 [mg/kg] |
| --- | --- | --- | --- | --- | --- |
| COc1ccnc(C[S+]([O-])c2nc3cc(-n4cccc4)ccc3[nH]2)c1C (stereo not drawn) [Compound 2, 2-[[(4-methoxy-3-methyl)-2-pyridinyl]methylsulfinyl]-5-(1H-pyrrol-1-yl)-1H-benzimidazole] | 0/5 | 0/5 | 0/5 | 0/5 |  |
| COc1ccc2[nH]c([S+]([O-])Cc3ncc(C)c(OC)c3C)nc2c1 (stereo not drawn) [Omeprazole, 5-methoxy-2-[[(4-methoxy-3,5-dimethyl-2-pyridinyl)methyl]sulfinyl]-1H-benzimidazole, reference compound] | 0/5 | 0/5 | 0/5 | 0/5 | > 4000.0 |
